Article PMC10419047, “Enzymatic Redox Properties and Cytotoxicity of Irreversible Nitroaromatic Thioredoxin Reductase Inhibitors in Mammalian Cells” (2023)
pIC50: −log10 of the molar value. Like-named read-outs stand apart in the source and are kept apart here.

By UniProt entry, the sequences of proteins in these tests, tags left out. Residues count along the entry.
UniProt P00390, 44-522 limits assumed: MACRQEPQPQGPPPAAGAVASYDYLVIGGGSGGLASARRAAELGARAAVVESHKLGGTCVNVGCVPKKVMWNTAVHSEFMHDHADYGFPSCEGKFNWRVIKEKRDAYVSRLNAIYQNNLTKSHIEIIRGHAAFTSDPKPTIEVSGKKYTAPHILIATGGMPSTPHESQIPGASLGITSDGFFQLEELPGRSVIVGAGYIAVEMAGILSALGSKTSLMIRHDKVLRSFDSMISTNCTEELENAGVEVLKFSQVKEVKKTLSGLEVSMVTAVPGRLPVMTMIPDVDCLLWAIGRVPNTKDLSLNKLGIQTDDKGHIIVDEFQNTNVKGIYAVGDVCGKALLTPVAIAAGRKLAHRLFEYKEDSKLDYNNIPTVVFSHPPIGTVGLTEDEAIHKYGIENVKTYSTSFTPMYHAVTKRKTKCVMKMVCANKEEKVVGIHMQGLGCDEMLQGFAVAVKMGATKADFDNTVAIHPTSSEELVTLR
UniProt P05982, 2-274 limits assumed: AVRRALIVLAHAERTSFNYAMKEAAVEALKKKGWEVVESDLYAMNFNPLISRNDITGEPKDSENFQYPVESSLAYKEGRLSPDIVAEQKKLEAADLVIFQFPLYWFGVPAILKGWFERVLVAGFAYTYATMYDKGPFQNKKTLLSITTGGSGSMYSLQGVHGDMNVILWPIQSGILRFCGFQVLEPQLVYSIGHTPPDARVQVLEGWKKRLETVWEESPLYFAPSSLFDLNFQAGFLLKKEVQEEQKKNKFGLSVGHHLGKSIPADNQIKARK

Key:
[1] = cited from earlier work
[2] = system: MH22a cells; conditions: read-out: MH22a cL50; previous data; cited from earlier work
[3] = system: HCT-116 cells; conditions: cited from earlier work
[4] = system: TrxR in the lysates of MH22a and HCT-116 cells; test: TrxR activity in cell lysates; conditions: 10 µM compound; for residual activity of TrxR in cell lysates: both at t = 0 and t = 20 min, 37 °C
[5] = Stability at pH 7.0 and 37 °C (spectral shift); conditions: pH 7.0, 37 °C
[6] = Single-electron reduction potential at pH 7.0 (E^1_7); conditions: calculated from log kcat/Km(avge) of P-450R and ADR/ADX reactions by Equation (A1)
[7] = system: MH22a cells; test: Cytotoxicity in MH22a cells (Trypan blue, cell counting); conditions: for pIC50: read-out: cL50 MH22a, concentration causing 50% cell death, 24 h; for cytotoxicity greater than expected from redox cycling activity: MH22a cells
[8] = Reaction of nitroaromatic compounds with reduced glutathione; conditions: GSH 2.0–10.0 mM, pH 7.0, 25 °C
[9] = system: TrxRs (human TrxR2 and rat TrxR1); test: Stimulation of NADPH:oxidase activity of TrxRs ('subversive substrate' action)
[10] = target: human glutathione reductase (HGR) (Homo sapiens, UniProt P00390); test: Reduction of nitroaromatics by human glutathione reductase (NADPH:oxidase activity); conditions: for NADPH:oxidase activity of HGR in the presence of compound: 0.04 s^−1 without compound
[11] = system: GR in the lysates of MH22a and HCT-116 cells; test: GR activity in cell lysates; conditions: 10 µM compound, t = 0 vs 20 min incubation with NADPH; 37 °C
[12] = Solubility limit in the enzymatic reaction mixture; conditions: 0.1 M K-phosphate, pH 7.0, 25 °C
[13] = system: HCT-116 cells; test: Growth inhibition of HCT-116 cells (crystal violet)
[14] = target: NAD(P)H:quinone oxidoreductase (NQO1) (Rattus norvegicus, UniProt P05982); test: Reduction of nitroaromatics by NAD(P)H:quinone oxidoreductase; conditions: 0.1 M K-phosphate, pH 7.0, 25 °C
[15] = system: MH22a cells; test: Modulation of cytotoxicity in MH22a cells by antioxidants, dicoumarol and cytochrome P-450 inhibitors
[16] = system: TrxR; conditions: cited from earlier work
[17] = system: GR; conditions: 50 µM, 4 h, cited from earlier work
[18] = single-electron reduction midpoint potential, pH 7.0
[19] = read-out: HCT-116 GI50, previous data

Row | Compound | E^1_7 [1, 18] | pIC50 [2] | GI50 [3, 19] | E^1_7(calc.) [6] | pIC50 [7] | second-order rate constant of reaction with GSH [8] | time-dependent inhibition of GR in cell lysates [11] | cytotoxicity greater than expected from redox cycling activity [13] | cytotoxicity greater than expected from redox cycling activity [7] | kcat NQO1 (in parentheses) [14] | also measured
1 | O=[N+]([O-])c1ccccc1 | −0.485 V | 2.74 | ≥ 5000 µM |  |  |  |  |  |  |  | 
2 | O=Cc1ccc([N+](=O)[O-])cc1 | −0.325 V | 3.70 | 50 µM |  |  |  |  |  |  |  | 
3 | O=C(Oc1cc(S(=O)(=O)c2ccccc2)ccc1[N+](=O)[O-])c1ccc(Cl)cc1 |  |  |  | −0.326 V | 4.55 | ~ 0.5 M^−1s^−1 |  |  |  |  | inhibition of TrxR in cell lysates in short-term experiments ([4]; up to 20 min): efficiently inhibited; t1/2 of λmax shift from 280 nm to 316 nm (instability) [5]: ~ 1.5 h; increase of NADPH:oxidase activity of TrxRs ([9]; 70 µM compound): 2–2.5 times; NADPH:oxidase activity of HGR in the presence of compound ([10]; 70 µM compound): 0.08 to 0.09 s⁻¹
4 | Cc1ccc(S(=O)(=O)c2ccc([N+](=O)[O-])o2)cc1 |  |  |  | −0.287 V | 6.00 | 7.2 ± 0.3 M⁻¹ s⁻¹ | less pronounced | at least 10 fold | at least 10 fold | ≤ 0.25 s⁻¹ | residual activity of TrxR in cell lysates [4]: very small; limit of solubility [12]: 70 µM; increase of NADPH:oxidase activity of TrxRs ([9]; 70 µM compound): 2–2.5 times; reduction rate of added cytochrome c relative to the NADPH oxidation rate ([10]; 50 µM cytochrome c, HGR-catalyzed reduction): 60%; kcat HGR ([10]; pH 7.0, 25 °C): ≥ 0.35 s⁻¹; Cell Viability (%) Additions: None ([15]; compound 1.0 µM): 45.1 ± 3.5%
5 | O=C(O)c1ccc([N+](=O)[O-])cc1 | −0.425 V | ≤ 2.22 | ≥ 6000 µM |  |  |  |  |  |  |  | 
6 | O=[N+]([O-])c1ccccc1[N+](=O)[O-] | −0.287 V | 4.60 | 60 µM |  |  |  |  |  |  |  | 
7 | COc1ccc([N+](=O)[O-])c(S(=O)(=O)c2ccc(Cl)cc2)n1 |  |  |  | −0.365 V | 5.18 | 4.8 ± 0.3 M⁻¹ s⁻¹ | less pronounced | at least 10 fold | at least 10 fold | 0.10 ± 0.02 s⁻¹ | GI50 ([3]; read-out: GI50 HCT-116, 48 h): 2.9 µM; Residual Activity (%) TrxR ([16]; BF16-F10 cells, 2.0 µM, 3 h): 50%; Residual Activity (%) TrxR ([16]; BF16-F10 cells, 20 µM, 3 h): 10%; Residual Activity (%) TrxR ([16]; HCT-116 cells, 3.3 µM, 3 h): 20%; residual activity of TrxR in cell lysates [4]: very small; increase of NADPH:oxidase activity of TrxRs ([9]; 100 µM compound): 2–2.5 times; NADPH:oxidase activity of HGR in the presence of compound ([10]; 100 µM compound): 0.08 to 0.09 s⁻¹; Cell Viability (%) Additions: None ([15]; compound 6.0 µM): 49.9 ± 4.5%
8 | CC(=O)c1ccc([N+](=O)[O-])cc1 | −0.355 V | 3.62 | 400 µM |  |  |  |  |  |  |  | 
9 | p-nitropyridine |  |  |  |  |  |  |  |  |  |  | E^1_7 [1]: −0.19 V
10 | O=[N+]([O-])c1ccc(Cl)c([N+](=O)[O-])c1 |  |  |  | −0.285 V | 5.72 |  | less pronounced | at least 10 fold | at least 10 fold | ≤ 0.1 s⁻¹ | Residual Activity (%) TrxR ([16]; A549 cells, 50 µM, 4 h): 30%; Residual Activity (%) TrxR ([16]; HeLa cells, 50 µM, 4 h): 30%; Residual Activity (%) GR ([17]; A549 cells): 80%; Residual Activity (%) GR ([17]; HeLa cells): 100%; increase of NADPH:oxidase activity of TrxRs ([9]; 100 µM compound): 2–2.5 times; NADPH:oxidase activity of HGR in the presence of compound ([10]; 100 µM compound): 0.08 to 0.09 s⁻¹; Cell Viability (%) Additions: None ([15]; compound 2.0 µM): 49.3 ± 4.2%
